# Measurements published in PubChem BioAssay AID493208 (National Center for Advancing Translational Sciences (NCATS), 2011).
# The list shows a part of the results, in another mix than the full data. Some tests of the compounds listed are not included; inactive here does not mean inactive elsewhere. Results filed as inconclusive are left out. Calls of active or inactive are those of the source. The call rests on the fitted dose curve; in most records, active means well fitted inhibition curve with a large enough effect; inconclusive means small, poorly fitted or top-dose-only effect; inactive means flat fitted curve, though single readings scatter.
# Assay: Acumen qHTS Assay for Inhibitors of the mTORC1 Signaling Pathway in MEF (Tsc2-/-, p53-/-) Cells: Sytravon; further: nearly all actives have a fitted effect of over 50% in size
# Conditions: phospho-rpS6 immunofluorescence/PI, 24 h; at 38.3 µM (top of the series)
# Excerpt: NIH Molecular Libraries Probe Production Centers Network [MLPCN] NIH Chemical Genomics Center [NCGC] MLPCN Grant: NS059428-01 Assay Submitter (PI): Blenis, John; Hoffman, Greg; Harvard University NCGC Assay Overview: The mammalian target of rapamycin (mTOR) is an intracellular serine/threonine kinase Aberrant regulation of mTOR signaling plays a causative role in a number of human diseases, including cancer, benign tumors such as lymphangioleiomyomatosis (LAM) and Tuberous Sclerosis Complex (TSC), and metabolic diseases such as diabetes and obesity. This project aims to identify inhibitors of ribosomal protein S6 (rpS6) phosphorylation. The phosphorylation of rpS6 is a key event downstream of mTOR activation. The assay uses a phospho-specific antibody of phospho-rpS6 to detect inhibitors of mTOR activation. Mutations in the Tsc1 and Tsc2 genes are the underlying genetic lesions responsible for TSC, causing constitutive activation of the mTORC1 pathway and leading to profound effects on cell metabolism. Aberrant metabolism in cancer has recently received significant attention as a target to develop therapeutic agents in the treatment of cancer.1 As Tsc2-/- cells have lost the ability to respond to energy and growth factor deprivation, these cells are unable to properly down regulate cellular biosynthetic processes in response to metabolic stress, and are thus extremely sensitive to glucose deprivation-induced death.2 A central goal of this project is to explore the unique cell survival and metabolic properties of cells with Tsc1 or Tsc2 by screening for compounds that selectively target the Tsc2-/- MEFs by screening both Tsc2-/- and WT MEF cell lines. We hope to better understand these aspects of TSC physiology in order to exploit them for therapeutic benefit.
# NCGC Acumen Assay Protocol Summary: For quantitative high throughput analysis of mTORC1 signaling, we developed a cell-based assay for immuno-fluorescence based detection of rpS6 phosphorylation on the Acumen Explorer that will be used a platform for the primary small molecule screen. Mouse embryonic fibroblasts (MEFs) are cultured in 1536-well plates using DMEM + 10% FBS. Twenty-four hrs after plating, test compounds (solubilized in DMSO) are delivered and incubated with the cells for 24 hrs at 37 degree Celsius. Following the incubation, media with compound is aspirated and the cells are fixed in 4% paraformaldehyde (PFA) containing PBS + 0.2% TX-100. Next, PFA is aspirated, cells are washed two times with PBS plus 0.2% TX-100 and the cells are blocked for 1 hr at room temperature (blocking buffer: LiCOR Blocking Buffer plus 0.2% TX-100). […] Cells are washed two times with PBS plus 0.2% TX-100, and stained with 10 uM propidium iodide (PI) for 20-25 minutes for cell number measurement (1:500 dilution of Hoescht staining is also added for IN Cell imaging). The plates are scanned on the Acumen Explorer laser scanning instrument (TTP Labtech) using the 488nm laser for simultaneous excitation of the Alexa-488 and PI. […] The normalized phospho-S6 staining is calculated as the ratio of the integrated Alexa 488 intensity divided by the integrated PI intensity for the single concentration rapamycin control (7.5 nM) and DMSO columns. […] Inhibition of the pathway is defined based on the normalized phospho-S6 intensity in rapamycin treated cells. Active cells are defined as those with a normalized phospho-S6 staining above this threshold, and each treatment is reported as the % positive cells in the well, where thresholds are defined by selecting wells with the highest and lowest signal and differentiating between the % non-active and % active populations. In addition to the pathway specific phospho-S6 endpoint, the number of PI stained cells from the Acumen is recorded as a measure of cell viability. The primary screen was performed with a MEF cell line in a defined genetic background, Tsc2-/-, p53-/- cell line stably transfected with an empty vector control (Tsc2-/- MEF).
row,Structure (SMILES),"activity change, negative = inhibition"
1,COc1ccc(C(=O)NCC2(N(C)C)CCCCC2)cc1Cl,inactive: 1.75%
2,CC(C)Oc1ccc(C(=O)NCC2(N(C)C)CCCCC2)cc1,inactive: 2.23%
3,Cc1cccc(C(=O)NCC2(N(C)C)CCCCC2)c1,inactive: -8.41%
4,COc1cc(C(=O)NCC2(N(C)C)CCCCC2)cc(OC)c1OC,inactive: 1.07%
5,COc1cccc(C(=O)NCC2(N3CCOCC3)CCCCC2)c1,inactive: -1.03%
6,CN(C)C1(CNC(=O)c2ccccc2F)CCCCC1,inactive: 1.6%
7,CN(C)C1(CNC(=O)c2cccc(Cl)c2)CCCCC1,inactive: -0.506%
8,CCOc1cccc(C(=O)NCC2(N(C)C)CCCCC2)c1,inactive: -2.65%
9,CCCCOc1ccccc1C(=O)NCC1(N(C)C)CCCCC1,inactive: -0.725%
10,CN(C)C1(CNC(=O)c2ccccc2[N+](=O)[O-])CCCCC1,inactive: -8.41%
